These results are taken from PubChem BioAssay AID463075 (University of Pittsburgh Molecular Library Screening Center, 2010).

The list shows a part of the results, in another mix than the full data. Some structures show a salt or complex split into parts, the way the source records it. The source made the active and inactive calls.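 How the source made its calls: active means activation, meaning protection from cell death, of at least 50% relative to plate controls; inactive means activation below 50%.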

A short description of this assay: rescue of FADD-deficient Jurkat cells from TNF-alpha death – single concentration, primary screen (AID 463075).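 Further: necroptosis triggered by 40 ng/mL TNF-alpha added together with compound.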 The conditions noted are these: Jurkat FADD-/- TNF necroptosis rescue, ATP luminescence, 24 h; at 10 µM; hits give high values; 0 = TNF only, 100 = no-TNF cells.
As for `COc1ccc(OP(C)(=O)Nc2cccc(Br)c2)cc1` (stereo not drawn), the activation (protection from cell death) was inactive: 3.3%.
As to `O=[N+]([O-])c1cc([N+](=O)[O-])c(NCC2CCS(=O)(=O)C2)c([N+](=O)[O-])c1` (stereo not drawn), the activation (protection from cell death) was inactive: -2.5%.
For the compound `Cc1cc(-c2cccc3ccccc23)c(C)cn1.O=[N+]([O-])c1cc([N+](=O)[O-])c(O)c([N+](=O)[O-])c1`, the activation (protection from cell death) was inactive: -2.03%.
For `O=[N+]([O-])c1ccc(OP2(=O)COCCO2)cc1` (stereo not drawn), the activation (protection from cell death) was inactive: 2.58%.
For `CCOP(C)(=S)SCC(=O)NC(C)(CC)C(=O)O` (stereo not drawn) the value was inactive: -2.68%; for `CP(=O)(Nc1ccc(SC(F)(F)F)cc1)Oc1ccc(F)cc1` (stereo not drawn), inactive: 3.56%; for `Cc1ccccc1NP(C)(=O)Nc1ccccc1C`, inactive: 1.91%.
As to `CP(=O)(Nc1ccc2c(c1)OCCO2)Oc1ccccc1` (stereo not drawn), the activation (protection from cell death) is inactive: -0.107%.
In the case of `CC(C)c1ccc(OP(C)(=O)Nc2ccc(SC(F)(F)F)cc2)cc1` (stereo not drawn) it was inactive: 3.11%.
Consider `CP(=O)(Nc1ccccc1F)Oc1ccccc1` (stereo not drawn), for which the activation (protection from cell death) was inactive: -1.48%.
In the case of `COc1ccc2c(c1O)-c1c(O)c(OC)cc3c1[C@H](C2)[N+](C)(C)CC3.O=[N+]([O-])c1cc([N+](=O)[O-])c([O-])c([N+](=O)[O-])c1[O-]` it was inactive: -0.0534%; in that of `O=C(OCCN1CCN(CCOCc2ccccc2)CC1)C(O)(c1ccccc1)c1ccccc1`, inactive: -1.46%; in that of `O=C(OC1CN2CCC1CC2)c1ccc([N+](=O)[O-])cc1` (stereo not drawn), inactive: 3.39%.
In the case of `COc1ccc(OP(C)(=O)Nc2ccc(SC(F)(F)F)cc2)cc1` (stereo not drawn) it was inactive: 3.75%; in that of `CCOC(=O)c1ccc(NP(C)(=O)Oc2ccc(F)cc2)cc1` (stereo not drawn), inactive: 2.21%; in that of `CCCCCOc1ccc(NP(C)(=O)Oc2ccc(Cl)cc2Cl)cc1` (stereo not drawn), inactive: 0.244%.
Consider `CP(=O)(Nc1ccccc1)Oc1ccc(F)cc1` (stereo not drawn), for which the activation (protection from cell death) is inactive: 0.282%.
In the case of `CCN(CC)CCCOC(=O)C(O)(c1ccccc1)C1CCCCC1` (stereo not drawn), the activation (protection from cell death) is inactive: 0.595%.
Take `O=C(O)c1cccc(Nc2c([N+](=O)[O-])cc([N+](=O)[O-])cc2[N+](=O)[O-])c1`: the activation (protection from cell death) is inactive: 1.05%.
Turning to `CC1=NCCc2c1[nH]c1ccccc21.O=[N+]([O-])c1cc([N+](=O)[O-])c(O)c([N+](=O)[O-])c1`, the activation (protection from cell death) was inactive: 2.38%.
For `Cc1cc(C)cc(OP(C)(=O)Nc2ccc(C)cc2C)c1` (stereo not drawn) the value was inactive: 0.0554%; for `CCOC(=O)c1ccc(NP(C)(=O)Oc2cc(C)cc(C)c2)cc1` (stereo not drawn), inactive: 1.57%.
Turning to `COc1ccccc1OP(C)(=O)Nc1cccc(Br)c1` (stereo not drawn), the activation (protection from cell death) was inactive: -1.39%.
With `COc1cc(C(=O)NCC2(N3CCOCC3)CCCCC2)cc(Cl)c1OC(C)C`, the activation (protection from cell death) is inactive: 0.0646%.
As for `Cc1cc(C)cc(OP(C)(=O)Nc2ccccn2)c1` (stereo not drawn), the activation (protection from cell death) was inactive: -0.00952%.
As to `CP(=O)(Nc1cccc(Br)c1)Oc1ccccc1` (stereo not drawn), the activation (protection from cell death) was inactive: 0.0925%.
Consider `Cc1ccc(C)c(NP(C)(=O)Oc2ccccc2)c1` (stereo not drawn), for which the activation (protection from cell death) is inactive: -0.637%.
With `O=[N+]([O-])c1cc([N+](=O)[O-])c(-n2nnc3ccccc32)c([N+](=O)[O-])c1`, the activation (protection from cell death) was inactive: -0.637%.
`Cc1nc2ccc3ccccc3c2s1.O=[N+]([O-])c1cc([N+](=O)[O-])c(O)c([N+](=O)[O-])c1`: the activation (protection from cell death) was inactive: -5.08%.
`CCOC(=O)C(CC)C1=NC(C)(C)Cc2ccccc21.O=[N+]([O-])c1cc([N+](=O)[O-])c(O)c([N+](=O)[O-])c1` (stereo not drawn): the activation (protection from cell death) was inactive: -2.88%.
In the case of `CN(C)C1(CNC(=O)c2ccc(S(C)(=O)=O)cc2)CCCCC1`, the activation (protection from cell death) was inactive: 0.683%.
For the compound `O=[N+]([O-])c1cc([N+](=O)[O-])c(Nc2nnnn2CCO)c([N+](=O)[O-])c1`, the activation (protection from cell death) was inactive: -2.43%.
As to `CCCOc1ccc(NP(C)(=O)Oc2ccc(Cl)cc2)cc1` (stereo not drawn), the activation (protection from cell death) was inactive: 2.25%.
For `CP(=O)(Nc1ccc(SC(F)(F)F)cc1)Oc1ccccc1` (stereo not drawn), the activation (protection from cell death) was inactive: 6.96%.
As to `COc1ccccc1OP(C)(=O)Nc1c(C)cccc1C` (stereo not drawn), the activation (protection from cell death) was inactive: -1.03%.
For `CN1CCCCC1COC(=O)C1(O)c2ccccc2CCc2ccccc21` (stereo not drawn), the activation (protection from cell death) was inactive: 3.16%.
Take `COc1ccccc1OP(C)(=O)Nc1ccccc1` (stereo not drawn): the activation (protection from cell death) is inactive: -0.635%.
Take `CP(=O)(Nc1ccccc1Br)Oc1ccccc1` (stereo not drawn): the activation (protection from cell death) was inactive: -0.061%.
In the case of `CP(=S)(Nn1cnnc1)Oc1ccccc1` (stereo not drawn), the activation (protection from cell death) was inactive: 0.0659%.
`Cc1cc(C)cc(OP(C)(=O)Nc2ccc(SC(F)(F)F)cc2)c1` (stereo not drawn): the activation (protection from cell death) is inactive: 2.73%.
Consider `CP(=O)(NC(=O)Nc1ccccc1)Oc1ccccc1` (stereo not drawn), for which the activation (protection from cell death) is inactive: -0.045%.
In the case of `CCc1ccc(OP(C)(=O)N2CCN(c3ccc([N+](=O)[O-])cc3)CC2)cc1` (stereo not drawn), the activation (protection from cell death) was inactive: -1.54%.
Consider `CP(=O)(Oc1ccccc1)OC(c1ccccc1)C(F)(F)F` (stereo not drawn), for which the activation (protection from cell death) was inactive: 20.3%.
For `Cc1cccc(C)c1OP(C)(=O)Nc1ccc(SC(F)(F)F)cc1` (stereo not drawn) the value was inactive: 1.28%; for `CP(=O)(Nc1ccc(SC(F)(F)F)cc1)Oc1ccc(Cl)cc1` (stereo not drawn), inactive: 5.23%; for `CP(=O)(Nc1ccccn1)Oc1ccc(Cl)cc1` (stereo not drawn), inactive: 0.76%.
On to `CCOP(C)(=S)SCC(=O)NC(C)C(=O)O` (stereo not drawn), for which the activation (protection from cell death) is inactive: 0.957%.
As to `CCOC(=O)c1ccc(NP(C)(=O)Oc2ccc(OC)cc2)cc1` (stereo not drawn), the activation (protection from cell death) was inactive: 6.06%.
For `CCN(CC)CCCOC(=O)C(O)(c1ccccc1)c1ccccc1` the value was inactive: 0.9%; for `Cc1cccc(C)c1OP(C)(N)=O` (stereo not drawn), inactive: -1.87%; for `CC(C)(C)c1ccc(OP(C)(=O)Nc2ccc(SC(F)(F)F)cc2)cc1` (stereo not drawn), inactive: 3.58%.
Regarding `O=[N+]([O-])c1ccc2c(c1)C=Nc1ccccc1O2`, the activation (protection from cell death) is inactive: -12.9%.
As for `COc1ccc(OP(C)(=O)Nc2cccc(F)c2)cc1` (stereo not drawn), the activation (protection from cell death) was inactive: 5.31%.
For `COc1ccccc1OP(C)(=O)Nc1cc(Cl)ccc1C` (stereo not drawn) the value was inactive: 0.961%; for `Cc1cc(C)cc(OP(C)(N)=O)c1` (stereo not drawn), inactive: -0.441%.
As to `CCOC(=O)c1ccc(NP(C)(=O)Oc2ccccc2)cc1` (stereo not drawn), the activation (protection from cell death) was inactive: 1.85%.
With `Cc1ccc(NP(C)(=O)Oc2ccccc2)c(C)c1` (stereo not drawn), the activation (protection from cell death) was inactive: 1.95%.
Turning to `COc1ccccc1OP(C)(=O)Nc1ccc(C)cc1` (stereo not drawn), the activation (protection from cell death) is inactive: 0.318%.
